{"source": "patent US20160302455A1", "about": "“Methods Of Producing An Antimicrobial Solution And Methods For Reducing Bacteria On Produce And/Or Minimizing Enzymatic Browning Of Produce” (priority 2015, published 2016)", "key": {"[1]": {"test_system": "Yeast and mold"}, "[2]": {"test_system": "Pseudomonas spp.", "conditions": "cantaloupe, after washing; control 2.4 ± 0.3; BD = Below detection (<1 CFU/g)"}, "[3]": {"test_system": "Aerobic, mesophilic bacteria", "assay_type": "cell-based"}, "[4]": {"test_system": "Salmonella spp.", "assay_type": "cell-based"}, "[5]": {"test_system": "Salmonella spp.", "assay_type": "cell-based", "remark": "listed apart in the source"}, "[6]": {"test_system": "L. monocytogenes", "assay_type": "cell-based, Listeria monocytogenes"}, "[7]": {"test_system": "Lactic acid bacteria", "conditions": "honeydew, after washing; control 1.0 ± 0.4"}, "[8]": {"test_system": "Pseudomonas spp.", "conditions": "honeydew, after washing; control 1.4 ± 0.3"}, "[9]": {"test_system": "Lactic acid bacteria", "conditions": "cantaloupe, after washing; control 3.0 ± 0.4"}, "[10]": {"conditions": "after treatment, initial population 2.7 ± 0.22"}}, "note": "Where two headings read alike, the source gives them in different places. Ends that are not written are not given here."}
{"compound": "O=C(O)CC(O)(CC(=O)O)C(=O)O", "note": "[Citric Acid (10 mM), Citric acid]", "values": [{"measurement": "Log reduction of yeast and mold on cantaloupe rind surface", "setting": "[1]; [10]", "value": "(0.8) log"}]}
{"compound": "O=C(O)CN(CCN(CC(=O)O)CC(=O)O)CC(=O)O", "note": "[EDTA (0.02 M), ethylenediaminetetraacetic acid]", "values": [{"measurement": "Log reduction of yeast and mold on cantaloupe rind surface", "setting": "[1]; [10]", "value": "(0.3) log"}]}
{"compound": "C/C=C/C=C/C(=O)O", "note": "[Sorbic acid (0.03%), Sorbic acid]", "values": [{"measurement": "Log reduction of yeast and mold on cantaloupe rind surface", "setting": "[1]; [10]", "value": "(2.3) log"}]}
{"compound": "OO", "note": "[hydrogen peroxide]", "values": [{"measurement": "Population of Pseudomonas spp., whole surface", "setting": "[2]", "value": "0.6 ± 0.06", "unit": "C Log10 CPU/cm^2"}, {"measurement": "Log reduction of yeast and mold on cantaloupe rind surface", "setting": "[1]; [10]", "value": "(2.6) log"}, {"measurement": "Population of yeast and mold, whole surface", "setting": "[1]; cantaloupe, after washing, control 3.0 ± 0.10", "value": "0.9 ± 0.02", "unit": "C Log10 CPU/cm^2"}, {"measurement": "Population of aerobic, mesophilic bacteria, whole surface", "setting": "[3]", "value": "3.1 ± 0.13", "unit": "B Log10 CPU/cm^2"}, {"measurement": "Surviving population of Salmonella spp., watermelon rind surface, Treated", "setting": "[4]", "value": "0.49 ± 0.10", "unit": "A Log10 CFU/cm^2"}, {"measurement": "ELR (Estimated log reduction) of Salmonella spp., cantaloupe", "setting": "[5]", "value": 2.5, "unit": "Log10 CFU/cm^2"}, {"measurement": "Surviving population of Salmonella spp., cantaloupe rind surface, Treated", "setting": "[5]", "value": "1.89 ± 0.04", "unit": "A Log10 CFU/cm^2"}, {"measurement": "Surviving population of L. monocytogenes, watermelon rind surface, Treated", "setting": "[6]", "value": "0.42 ± 0.10", "unit": "A Log10 CFU/cm^2"}, {"measurement": "Population of lactic acid bacteria, whole surface", "setting": "[7]", "value": "0.3 ± 0.04", "unit": "B Log10 CFU/cm^2"}, {"measurement": "Population of Pseudomonas spp., whole surface", "setting": "[8]", "value": "0.4 ± 0.06", "unit": "B Log10 CFU/cm^2"}, {"measurement": "Population of lactic acid bacteria, whole surface", "setting": "[9]", "value": "0.8 ± 0.04", "unit": "C Log10 CPU/cm^2"}]}
{"compound": "Sodium Lactate [Sodium Lactate (2%)]", "values": [{"measurement": "Log reduction of yeast and mold on cantaloupe rind surface", "setting": "[1]", "value": "(1.5) log"}]}
{"compound": "nisin (ITSISLCTPGCKTGALMGCNMKTATCHCSIHVSK; not fully specified (some residues, bridges); cysteine pairing not given here; UniProt P13068 24-57, looked up) [Nisin (30 mg; (~10 μg/ml)]", "values": [{"measurement": "Log reduction of yeast and mold on cantaloupe rind surface", "setting": "[1]", "value": "(0.9) log"}]}
